Here are results for two sequences from the supplement of paper PMC12458215.

The data set deals with HEK293T. As to the kind of experiment: plasma membrane surface immunostaining intensity (anti-HA, deep receptor scanning) (arbitrary fluorescence units); higher = higher plasma membrane expression. The settings on record: GPCR class: A.

± gives the uncertainty stated by the source.

Turning to “MWNSSDANFSCYHESVLGYRYVAVSWGVVVAVTGTVGNVLTLLALAIQPKLRTRFNLLIANLTLADLLYCTLLQPFSVDTYLHLHWRTGATFCRVFGLLLFASNSVSILTLCLIALGRYLLIAHPKLFPQVFSAKGIVLALVSTWVVGVASFAPLWPIYILVPVVCTCSFDRIRGRPYTTILMGIYFVLGLSSVGIFYCLIHRQVKRAAQALDQYKLRQASIHSNHVARTDEAMPGRFQELDSRLASGGPSEGISSEPVSAATTQTLEGDSSEVGDQINSKRAKQMAEKSPPEASAKAQPIKGARRAPDSSSEFGKVTRMCFAVFLCFALSYIPFLLLNILDARVQAPRVVHMLAANLTWLNGCINPVLYAAMNRQFRQAYGSILKRGPRSFHRLH [GPR84]”, the “plasma membrane surface immunostaining intensity” value was determined as 6389 ± 23.

As for “MDLHLFDYSEPGNFSDISWPCNSSDCIVVDTVMCPNMPNKSVLLYTLSFIYIFIFVIGMIANSVVVWVNIQAKTTGYDTHCYILNLAIADLWVVLTIPVWVVSLVQHNQWPMGELTCKVTHLIFSINLFGSIFFLTCMSVDRYLSITYFTNTPSSRKKMVRRVVCILVWLLAFCVSLPDTYYLKTVTSASNNETYCRSFYPEHSIKEWLIGMELVSVVLGFAVPFSIIAVFYFLLARAISASSDQEKHSSRKIIFSYVVVFLVCWLPYHVAVLLDIFSILHYIPFTCRLEHALFTALHVTQCLSLVHCCVNPVLYSFINRNYRYELMKAFIFKYSAKTGLTKLIDASRVSETEYSALEQSTK [ACKR3]”, the “plasma membrane surface immunostaining intensity” value came to 2200 ± 430.
